PubChem BioAssay AID624474 (Sanford-Burnham Center for Chemical Genomics, 2012)
Calls of active or inactive are those of the source.

Protein sequences, listed by entry. Tags and fused reporters are not part of them.
UniProt P34707, whole entry: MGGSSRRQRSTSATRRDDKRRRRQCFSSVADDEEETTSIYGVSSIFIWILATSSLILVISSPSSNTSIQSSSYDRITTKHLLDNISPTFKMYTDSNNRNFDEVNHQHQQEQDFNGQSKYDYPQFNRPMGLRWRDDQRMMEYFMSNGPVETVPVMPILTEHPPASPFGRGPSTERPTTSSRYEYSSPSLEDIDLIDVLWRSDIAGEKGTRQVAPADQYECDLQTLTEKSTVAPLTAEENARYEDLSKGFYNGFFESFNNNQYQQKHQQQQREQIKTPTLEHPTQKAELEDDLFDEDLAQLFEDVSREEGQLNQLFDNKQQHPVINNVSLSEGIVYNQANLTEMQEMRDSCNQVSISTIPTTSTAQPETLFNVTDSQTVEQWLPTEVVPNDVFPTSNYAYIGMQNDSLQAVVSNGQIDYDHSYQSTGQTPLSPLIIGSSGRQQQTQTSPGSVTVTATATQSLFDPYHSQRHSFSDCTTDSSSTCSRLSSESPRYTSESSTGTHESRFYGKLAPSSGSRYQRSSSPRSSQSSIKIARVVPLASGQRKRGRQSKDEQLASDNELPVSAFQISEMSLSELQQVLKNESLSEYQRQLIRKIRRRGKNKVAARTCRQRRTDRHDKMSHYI

Target: Protein skinhead-1 (Caenorhabditis elegans) (UniProt P34707)
Assay: C. elegans SKN-1 blockade, concentration series – fluorescence ratio readout, dose response (AID 624474)
Details: SKN-1 inhibitor fluorescence ratio assay

O=c1[nH]c2ccccc2n1C1CCN(C(c2cccc3ccccc23)c2nnnn2C2CCCC2)CC1 (stereo unspecified)
IC50: inactive: > 100 µM
